## Apparent affinities of Ab-14 variants for a coronavirus HR2 peptide

The target is the same throughout: PDVDLGDISGINAS, from the HR2 region of SARS-CoV-2 spike.

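The parent was found by panning a naive human phage display library on the peptide. The library (AAYL50) carries one to three amino acid substitutions per variant, with no insertions or deletions. Affinity was read by AlphaSeq, a pooled yeast mating assay with surface-displayed partners. Pairs that bind mate more often; barcode pairs of the diploids are counted by sequencing. The ratio of observed to expected reads was calibrated, replicate by replicate, on BCL2-family standards whose Kd was known from biolayer interferometry. Each pool was mated in three replicate cultures.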

Each scFv is VH, the linker GGGGSGGGGSGGGGS, VL, as in the parent Ab-14, and differs from it in the CDRs of the light chain only.
VH: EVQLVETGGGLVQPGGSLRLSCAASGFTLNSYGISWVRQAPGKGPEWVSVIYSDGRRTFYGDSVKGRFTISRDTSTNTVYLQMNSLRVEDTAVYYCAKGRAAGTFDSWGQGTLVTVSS
VL: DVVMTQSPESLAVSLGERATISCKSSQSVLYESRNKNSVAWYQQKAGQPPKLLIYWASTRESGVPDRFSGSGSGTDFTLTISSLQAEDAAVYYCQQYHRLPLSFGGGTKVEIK

Each variant is given by its three light chain CDRs, as the data file delimits them; those of the parent are KSSQSVLYESRNKNSVA, WASTRES, QQYHRLPLS. Affinities are written as log10 Kd with Kd in nM; a lower number is a better binder. A mean of the replicates is given; it leaves out those without a signal. "ND" marks a missing value. The strain was present, yet no cells mated with the target were sequenced in that replicate, which points to weak or no binding.

{"CDR-L1": "KSSQSVLYESRNKNSVM", "CDR-L2": "WASTRES", "CDR-L3": "QQYFRLDLS", "log10 Kd, replicates": "5.14 5.06 3.84", "mean, log10 nM": "4.68", "signal with controls": "5/9 (4.68)"}
{"CDR-L1": "KSSQSVLLEERNKNSVA", "CDR-L2": "WASTRES", "CDR-L3": "QQYHHLPLS", "log10 Kd, replicates": "0.33 0.59 0.47", "mean, log10 nM": "0.46", "signal with controls": "3/9 (5.48)"}
{"CDR-L1": "KSSNSVLYESRNKNSVA", "CDR-L2": "WASTRES", "CDR-L3": "QQYHWLPLS", "log10 Kd, replicates": "2.22 0.68 0.84", "mean, log10 nM": "1.25", "signal with controls": "0/9"}
{"CDR-L1": "KSSQSVLYESRNKNSWA", "CDR-L2": "WCTTRES", "CDR-L3": "QQYHRLPLS", "log10 Kd, replicates": "ND ND ND", "mean, log10 nM": "ND", "signal with controls": "0/9"}
{"CDR-L1": "KSSQSVLYESRNKNSVA", "CDR-L2": "WAFTMES", "CDR-L3": "QQGHRLPLS", "log10 Kd, replicates": "ND ND ND", "mean, log10 nM": "ND", "signal with controls": "0/9"}
{"CDR-L1": "KSSQSVLYRSRYKNSVA", "CDR-L2": "WASTRES", "CDR-L3": "QQYHVLPLS", "log10 Kd, replicates": "1.73 ND ND", "mean, log10 nM": "1.73", "signal with controls": "0/9"}
{"CDR-L1": "KSSQSVLYESRNKNSVA", "CDR-L2": "WASTRES", "CDR-L3": "QMYHRAPMS", "log10 Kd, replicates": "0.69 0.92 0.63", "mean, log10 nM": "0.75", "signal with controls": "0/9"}
{"CDR-L1": "KSSQSVLYSSRNKNSVA", "CDR-L2": "WWSTREH", "CDR-L3": "QQYHRLPLS", "log10 Kd, replicates": "ND ND ND", "mean, log10 nM": "ND", "signal with controls": "0/9"}
{"CDR-L1": "KSSQSVLYESRNKNSVA", "CDR-L2": "WCSTRWS", "CDR-L3": "QQYHVLPLS", "log10 Kd, replicates": "ND ND ND", "mean, log10 nM": "ND", "signal with controls": "0/9"}
{"CDR-L1": "KSSQSVLYDSQTKNSVA", "CDR-L2": "WASTRES", "CDR-L3": "QQYHRLPLS", "log10 Kd, replicates": "0.85 1.05 0.95", "mean, log10 nM": "0.95", "signal with controls": "3/9 (4.01)"}
{"CDR-L1": "RSSQTVLYESRNKNSVA", "CDR-L2": "WALTRES", "CDR-L3": "QQYHRLPLS", "log10 Kd, replicates": "ND ND ND", "mean, log10 nM": "ND", "signal with controls": "2/9 (3.70)"}
{"CDR-L1": "KSSQSVLYESCNKNSVA", "CDR-L2": "WAMTRES", "CDR-L3": "QQYHRLPLS", "log10 Kd, replicates": "2.26 1.91 2.43", "mean, log10 nM": "2.20", "signal with controls": "6/9 (5.02)"}
{"CDR-L1": "KSSQSVLYESRPKNSVG", "CDR-L2": "WASTDES", "CDR-L3": "QQYHRLPLS", "log10 Kd, replicates": "ND ND ND", "mean, log10 nM": "ND", "signal with controls": "0/9"}
{"CDR-L1": "KSSQSMLYESRIKNSVA", "CDR-L2": "WASTRES", "CDR-L3": "QQYERLPLS", "log10 Kd, replicates": "0.96 1.10 1.24", "mean, log10 nM": "1.10", "signal with controls": "0/9"}
{"CDR-L1": "KSSQSVLYESRNKNSPA", "CDR-L2": "WASTRES", "CDR-L3": "QQYHTLPLL", "log10 Kd, replicates": "ND ND ND", "mean, log10 nM": "ND", "signal with controls": "2/9 (3.89)"}
{"CDR-L1": "KSSQSVLYESRNKNSVA", "CDR-L2": "WASTRLS", "CDR-L3": "KQYHRLPSS", "log10 Kd, replicates": "4.78 4.19 5.73", "mean, log10 nM": "4.90", "signal with controls": "7/9 (4.41)"}
{"CDR-L1": "KSKQSPLYESRNKNSVS", "CDR-L2": "WASTRES", "CDR-L3": "QQYHRLPLS", "log10 Kd, replicates": "ND ND 6.32", "mean, log10 nM": "6.32", "signal with controls": "3/9 (4.96)"}
{"CDR-L1": "KSEQSVLYESRNKNSVA", "CDR-L2": "WASTDES", "CDR-L3": "QQYHRLPNS", "log10 Kd, replicates": "ND ND 3.65", "mean, log10 nM": "3.65", "signal with controls": "0/9"}
{"CDR-L1": "KSSQSVLYVRRNKNSVA", "CDR-L2": "WASTNES", "CDR-L3": "QQYHRLPLS", "log10 Kd, replicates": "ND ND ND", "mean, log10 nM": "ND", "signal with controls": "2/9 (3.00)"}
{"CDR-L1": "KSSQGVLYESRNKNSVQ", "CDR-L2": "WASTRES", "CDR-L3": "QQYGRLPLS", "log10 Kd, replicates": "0.92 1.18 0.96", "mean, log10 nM": "1.02", "signal with controls": "4/9 (4.21)"}
{"CDR-L1": "ESPQSVLYESRNKNSPA", "CDR-L2": "WASTRES", "CDR-L3": "QQYHRLPLS", "log10 Kd, replicates": "ND ND ND", "mean, log10 nM": "ND", "signal with controls": "0/9"}
{"CDR-L1": "KSSQSVLVESRNKNSVA", "CDR-L2": "NASTRES", "CDR-L3": "QQYPRLPLS", "log10 Kd, replicates": "ND ND ND", "mean, log10 nM": "ND", "signal with controls": "1/9 (4.01)"}
{"CDR-L1": "KSSQSVLYESRNKNSVA", "CDR-L2": "CANTRMS", "CDR-L3": "QQYHRLPLS", "log10 Kd, replicates": "0.84 1.07 0.91", "mean, log10 nM": "0.94", "signal with controls": "1/9 (4.81)"}
{"CDR-L1": "KSSQSVLYESRNKNSVA", "CDR-L2": "WASTRTS", "CDR-L3": "QQGHRDPLS", "log10 Kd, replicates": "ND 3.07 ND", "mean, log10 nM": "3.07", "signal with controls": "2/9 (4.39)"}
{"CDR-L1": "KSSQSVLYESRNKNSHA", "CDR-L2": "WASTRES", "CDR-L3": "QQAARLPLS", "log10 Kd, replicates": "ND ND ND", "mean, log10 nM": "ND", "signal with controls": "2/9 (2.82)"}
{"CDR-L1": "KSSQSVLYESRNKNSVA", "CDR-L2": "WKSTRES", "CDR-L3": "QQDHTLPLS", "log10 Kd, replicates": "4.14 ND ND", "mean, log10 nM": "4.14", "signal with controls": "0/9"}
{"CDR-L1": "KSSQSVLYESRNGNPVA", "CDR-L2": "WASPRES", "CDR-L3": "QQYHRLPLS", "log10 Kd, replicates": "3.40 ND 5.20", "mean, log10 nM": "4.30", "signal with controls": "3/9 (4.58)"}
{"CDR-L1": "KSSQSVLYESRNKNSCA", "CDR-L2": "WASTAES", "CDR-L3": "QQYHRLPLQ", "log10 Kd, replicates": "ND ND ND", "mean, log10 nM": "ND", "signal with controls": "0/9"}
{"CDR-L1": "KSSQSVLYESRNFNSVA", "CDR-L2": "WASTRNS", "CDR-L3": "QQYHRLPLS", "log10 Kd, replicates": "1.22 1.46 1.73", "mean, log10 nM": "1.47", "signal with controls": "1/9 (2.90)"}
{"CDR-L1": "KSSQSVLYESHNKNSVA", "CDR-L2": "WAPTRES", "CDR-L3": "QQYHRLPLS", "log10 Kd, replicates": "ND ND 4.78", "mean, log10 nM": "4.78", "signal with controls": "0/9"}
{"CDR-L1": "KSSQSVLYESRNKNSVA", "CDR-L2": "WASTSES", "CDR-L3": "QLYHRLPLL", "log10 Kd, replicates": "3.32 ND 2.17", "mean, log10 nM": "2.75", "signal with controls": "3/9 (2.33)"}
{"CDR-L1": "KSSESVLYESRNVNSVA", "CDR-L2": "WASTRES", "CDR-L3": "QQYHWLPLS", "log10 Kd, replicates": "ND 3.88 5.98", "mean, log10 nM": "4.93", "signal with controls": "1/9 (4.30)"}

For reference, 2 entries of the list once more:

CDR-L1	CDR-L2	CDR-L3	log10 Kd, replicates	mean, log10 nM	signal with controls
ESPQSVLYESRNKNSPA	WASTRES	QQYHRLPLS	ND ND ND	ND	0/9
KSSQSVLLEERNKNSVA	WASTRES	QQYHHLPLS	0.33 0.59 0.47	0.46	3/9 (5.48)

Nonspecific signal, from three strains lacking the peptide, appeared in 18% of pairings of library AAYL50, centred on 4.19 (5% of these signals below 2.99); values are not corrected for it. For each scFv, signals with the empty controls are counted beside the result, with their mean in brackets.

Source: Engelhart et al. 2022 (doi:10.1038/s41597-022-01779-4), MIT Lincoln Laboratory and A-Alpha Bio; data file from the FLAb repository.